Assay results from US20220135628A1 (OXFORD UNIVERSITY INNOVATION, published 2022).

Molecular target: SpyTag003-MBP
Test: SDS-PAGE with sfGFP fluorescence, pH 7.0, 25 C

B1: SpyCatcher-sfGFP (designed binder)
chain: VDTLSGLSSEQGQSGDMTIEEDSATHIKFSKRDEDGKELAGATMELRDSSGKTISTWISDGQVKDFYLYPGKYTFVETAAPDGYEVATAITFTVNEQGQVTVNGKATKGDAHI
notes: not shown: super-folder GFP (sfGFP)
  Rate constant (second-order, isopeptide bond formation): 39000 M⁻¹ s⁻¹

B2: SpyCatcher002-sfGFP (designed binder)
chain: B1 chain with D2T, S9G, Q13P, I19T, K37R, Q62H, K105E, I113T
notes: as for B1
  Rate constant (second-order, isopeptide bond formation): 130000 M⁻¹ s⁻¹

Substitutions are numbered along the chain they refer to.
